Data taken from article PMC11847841, “The development and evaluation of a tublysine-based antibody-drug conjugate with enhanced tumor therapeutic efficacy” (Frontiers in Pharmacology, 2025).

Tests used:
[1] = Repeated-dose toxicity study in cynomolgus monkeys; assay type: in vivo; settings: Q3W × 5
[2] = Repeated-dose toxicity study in SD rats; assay type: in vivo, SD rat; settings: Tub114-cys 8 mg/kg

In the case of CCC(C)C(NC(=O)C(C)(C)N(C)C)C(=O)N(C)C(CC(OC(C)=O)c1nc(C(=O)NC(Cc2ccc(O)c(NC(=O)CCCNC(=O)C(CCCCNC(=O)COCCOCCOCCOCCOCCOCCOCCOCCOCCOC)NC(=O)CCCN3C(=O)CC(SCC(N)C(=O)O)C3=O)c2)CC(C)C(=O)O)cs1)C(C)C (centres unmarked) [Tub114-cys], the Hematology ([1]; 3 mg/kg Tub114-cys) is reported as 3 mg/kg Tub114-cys: increases in NEUT and MONO, the Clinical chemistry ([1]; Tub114-cys 3 mg/kg) is reported as “Tub114-cys: increases in CREA and TG” and the Clinical chemistry ([2]; Q3W × 5) is reported as “Tub114-cys: increases in CREA and TG”. For the same compound, the Hematology ([2]; Q3W × 5) was “Tub114-cys: decrease in RET” and the Dead/mortality ([2]; i.v. Q3W × 5, DX126-262 30, 100, 200 mg/kg) was “All animals survived at the end of study”.
